Reference: publication PMC3831292, “The pungent substances piperine, capsaicin, 6-gingerol and polygodial inhibit the human two-pore domain potassium channels TASK-1, TASK-3 and TRESK” (Frontiers in Pharmacology, 2013)

Sequences of proteins named here, by UniProt entry; tags and fusion partners are left off. A change or cut given only in a name is not applied to a line headed by its entry.
UniProt O14649: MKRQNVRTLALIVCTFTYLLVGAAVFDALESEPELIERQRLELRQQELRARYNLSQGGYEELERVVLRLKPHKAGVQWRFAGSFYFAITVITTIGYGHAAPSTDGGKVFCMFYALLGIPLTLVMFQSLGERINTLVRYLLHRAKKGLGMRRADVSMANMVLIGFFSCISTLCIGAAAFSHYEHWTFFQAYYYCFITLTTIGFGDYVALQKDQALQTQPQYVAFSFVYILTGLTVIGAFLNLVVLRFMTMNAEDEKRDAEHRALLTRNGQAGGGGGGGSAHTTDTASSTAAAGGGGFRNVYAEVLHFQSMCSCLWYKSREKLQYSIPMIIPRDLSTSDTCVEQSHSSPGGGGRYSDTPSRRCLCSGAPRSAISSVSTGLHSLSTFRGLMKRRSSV

Biological target: T1, hTASK-1 (K2P3.1, KCNK3) (Homo sapiens, UniProt O14649)
T1 construct: full-length cDNA in pIRES-CD8 vector; cRNA injected into Xenopus laevis oocytes
Test: two-electrode voltage clamp, Xenopus oocytes
Format: cell-based
Details: read-out: TASK-1
Text: two-electrode voltage clamp, Xenopus oocytes on hTASK-1 (K2P3.1, KCNK3)

Compound `O=C(/C=C/C=C/c1ccc2c(c1)OCO2)N1CCCCC1` [piperine] has an IC50 of 45 ± 3.9 µM.
